The chains behind the UniProt entries cited, without tags or fusion partners.
UniProt P25103, whole entry: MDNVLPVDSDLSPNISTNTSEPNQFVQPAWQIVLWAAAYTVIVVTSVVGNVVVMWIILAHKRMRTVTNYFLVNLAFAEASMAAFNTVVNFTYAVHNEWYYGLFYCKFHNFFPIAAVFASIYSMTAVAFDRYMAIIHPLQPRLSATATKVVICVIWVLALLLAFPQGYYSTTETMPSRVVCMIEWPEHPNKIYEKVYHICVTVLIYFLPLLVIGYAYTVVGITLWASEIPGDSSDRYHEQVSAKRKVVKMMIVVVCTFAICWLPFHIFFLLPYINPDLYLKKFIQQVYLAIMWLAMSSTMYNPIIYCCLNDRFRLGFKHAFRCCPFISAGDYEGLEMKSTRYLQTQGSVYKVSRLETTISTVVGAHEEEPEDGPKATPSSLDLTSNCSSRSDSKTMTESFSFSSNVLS

According to patent publication US20070149570A1, “Piperidine derivative and use thereof” (priority 2005, published 2007):

Biological target: substance P receptors (Homo sapiens, UniProt P25103)
Test: Radioligand receptor binding inhibitory activity using receptor from human lymphoblast cells (IM-9), 125I-BHSP
Conditions: read-out: IC50 (concentration necessary to cause 50% inhibition), radioligand 125I-BHSP, 25° C., 30 minutes, tested form: HCl

CC(=O)NCC(=O)N1CCC(NCc2cc(-c3ccc(C#N)cc3)ccc2OC(F)(F)F)C(c2ccccc2)C1 (stereo not shown)
IC50: 0.021 nM
